PglD inh = PglD (C. jejuni) enzyme inhibition. purified PglD enzyme, DTNB colorimetric CoA detection. inhibition, % at 12.5 µM. 360,000 tested, 0.098% active. AID 602405; in the data active = inhibition above about 16%, passing the limit was not always enough; inconclusive = no clear call, values can overlap the other calls
miR-122 sensor = inhibitors of miR-122 in Huh7 cells | Huh7 miR-122 Renilla luciferase sensor, 48 h; neutral wells = 0, positive control = 100 | activation (reporter increase), % at 12.5 µM | 340,000 tested, 0.3% active;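 active = mean replicate activation score at least 90 and every replicate individually at or above 90; inconclusive = only one of the two criteria met; inactive = neither criterion met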;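 note: higher luciferase means less miR-122 activity so hits act as miR-122 inhibitors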
esBAF inh = SWI/SNF esBAF complex inhibition. mouse ES cells, Bmi1-luciferase knock-in reporter, 24 h; 100% = twice the neutral-well signal. reporter increase, % at 12.5 µM. 350,000 tested, 2% active; in the data active = activation above about 40%; inconclusive = no clear call, values can overlap the other calls;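 note: 0% = median of the plate's neutral control wells and 100% = double that signal; a rise in the Bmi1 reporter signal indicates esBAF inhibition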
Wnt act = activators of Wnt/beta-catenin signaling; Wnt/beta-catenin reporter cell assay, activator, plate reader; activation, % at 9.35 µM; 300,000 tested, 1.2% active; AID 743398; in the data active = activation above about 30%, passing the limit was not always enough; inconclusive = no clear call, values can overlap the other calls;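 note: 0% = neutral control wells and 100% = positive control wells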
Yeast UUG start = yeast start codon fidelity modulation. S. cerevisiae UUG-firefly luciferase reporter, luminescence/redox ratio. activity score, % at 18.7 µM. 0.13% of 350,000 active;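 active means replicate mean at a twofold rise or more, about +100% in these data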;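 further: firefly luciferase made from a UUG start codon reports start codon fidelity; reporter light over untreated wells divided by growth signal over untreated wells; some hits fall short of that in this replicate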
MITF TRPM1 HTS = MITF TRPM1 promoter activation in melanoma cells; SK-MEL-5 TRPM1-promoter luciferase, 24 h; % of positive control, neutral wells = 0; activation, % at 12.5 µM; 300,000 tested, 0.75% active;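 active = mean activation of at least 80% with every replicate also reaching 80%; inconclusive = mean reaches 80% but some replicate falls short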;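 note: 0% = neutral control wells and 100% = parthenolide positive control wells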
Starred values were filed as active, the others as inactive; ? = inconclusive; . = no result given; [ ] = dose if it differs, or a comment. Only some compounds are listed: those with a hit (about 2.8% of all), similar ones and a draw of the others.

nr	compound	PglD inh	miR-122 sensor	esBAF inh	Wnt act	Yeast UUG start	MITF TRPM1 HTS
1	O=C(COC(=O)[C@H](Cc1c[nH]c2ccccc12)NC(=O)c1ccc(Cl)cc1)Nc1ccc2c(c1)OCO2	6.0	1.6	?	.	-18.4	10.5
2	Cc1ccc(S(=O)(=O)Nc2ccc3c(c2)C(=O)N([C@H](C)CO)C[C@H](C)[C@H](CN(C)C(=O)Nc2ccccc2)O3)cc1	.	0.6[16.7 µM]	-0.7	.	-16.5	.
3	COc1cccc(S(=O)(=O)N[C@H]2C=C[C@H](CC(=O)NCc3ccc(F)cc3)O[C@@H]2CO)c1	3.5	.	-3.5	.	5.3	.
4	O=S(=O)(N[C@@H]1CC[C@H](CCn2cc(-c3cccc(F)c3)nn2)O[C@@H]1CO)c1ccc(Cl)cc1	-0.6	.	14.9	.	-2.2	.
5	C[C@H]1CN([C@@H](C)CO)C(=O)Cc2cc(NC(=O)Nc3ccc(C(F)(F)F)cc3)ccc2O[C@@H]1CN(C)C(=O)Nc1cccc2ccccc12	3.8	-5.3[16.7 µM]	-2.9	.	6.1	.
6	Clc1ccc(CSc2cc3c(nn2)-c2ccccc2CC3)cc1	2.8	34.1	52.3*	.	-10.6	45.0
7	Clc1ccc(CSc2ccc(-c3ccccn3)nn2)cc1	5.8	0.1	32.0	27.5	-25.8	9.8
8	C[C@@H]1CN([C@H](C)CO)C(=O)c2cc(NC(=O)C3CCCCC3)ccc2O[C@@H]1CN(C)C(=O)Nc1ccc(C(F)(F)F)cc1	5.7	-2.1[16.7 µM]	-8.8	.	8.0	.
9	N/C(=N\OC(=O)c1ccc(Br)cc1)c1ccncc1	.	-9.3	?	11.6	.	97.9*
10	N/C(=N\OC(=O)c1ccc(F)cc1)c1ccc(Br)cc1	-3.6	0.5	56.2*	44.2*	2.2	65.6
11	N/C(=N\OC(=O)c1ccc(F)cc1)c1ccccc1	-4.9	5.1	34.2	.	-27.5	32.9
12	N/C(=N\OC(=O)c1ccccc1)c1ccncc1	.	-12.2	-2.5	-0.4	.	0.6
13	O=C(Cc1ccncc1)NCC[C@@H]1CC[C@@H](NC(=O)C2CCOCC2)[C@H](CO)O1	0.8	.	-5.2	.	-8.6	.
14	Cc1cc(C)c(C)c(S(=O)(=O)NCc2cccnc2)c1C	0.6	72.2	-6.9	-1.2	-17.9	-9.2
15	COc1cc(S(=O)(=O)NCc2cccnc2)c(OC)cc1Br	0.2	108.2*	-5.8	-0.2	-16.8	.
16	COc1cc(C)c(Cl)c(C)c1S(=O)(=O)NCc1cccnc1	-1.3	121.3*	-4.2	.	-15.3	.
17	COc1cc(S(=O)(=O)NCc2ccncc2)c(OC)cc1Br	0.3	.	.	-1.8	-13.8	-6.8
18	Cc1ccccc1-c1nnc(SCC#N)o1	.	1.4	.	-1.3	.	-6.0
19	Cc1ccccc1-c1nnc(-c2ccccc2C)o1	11.7	-2.2	.	47.1*	-8.9	58.3
20	Cc1ccccc1-c1nnc(-c2ccc(Br)cc2)o1	.	-2.7	69.1*	43.9*	.	.
21	COc1ccccc1NS(=O)(=O)c1cc(NC(=S)NCC2CCCO2)ccc1C (stereo not drawn)	.	99.2*	-1.6	-3.7	.	-6.2
22	COc1ccccc1NS(=O)(=O)c1cc(C(=O)NCC2CCCO2)ccc1C (stereo not drawn)	.	.	-2.3	0.4	.	-0.7
23	COC(=O)C[C@@H]1CC[C@@H]2[C@@H](COc3ccc(NC(=O)Nc4cccc(C#N)c4)cc3C(=O)N2C)O1	-0.8	-47.8[16.7 µM]	-3.6	.	-1.7	.
24	C[C@H]1CN([C@@H](C)CO)C(=O)Cc2cc(NC(=O)Nc3cccc4ccccc34)ccc2O[C@@H]1CN(C)C(=O)NC1CCCCC1	1.9	-2.5[16.7 µM]	0.7	.	-8.8	.
25	CCCCOc1ccc2ccccc2c1C=O	-3.0	-0.7	73.1*	7.8	-10.9	54.9
26	CCCOc1ccc2ccccc2c1/C=C1\SC(=O)NC1=O	-7.3	3.6	1.5	1.2	-9.2	.
27	COC(=O)CNc1c(-c2ccccc2)nc2ccc(Br)cn12	9.3	0.0	49.7*	.	-38.4	.
28	Cc1ccc(-n2c(C)cc(C(=O)CSc3nnnn3C)c2C)cc1	8.9	-3.0	27.0	62.5*	-29.6	45.1
29	Cc1ccc(-n2c(C)cc(C(=O)CSc3nncs3)c2C)cc1	.	.	.	.	.	28.9
30	CCCCC12CN3CCN(CC(C3)/C1=N\NC(=O)c1ccccc1N)C2	-2.2	2.2	.	35.2*	-17.4	4.1
31	Cc1ccc(NC(=O)COc2ccc(Br)cc2CO)cc1	.	283.6*	33.4	.	.	64.5
32	O=C(COc1ccc(Br)cc1CO)Nc1ccccc1	4.8	-4.3	56.1*	31.0*	-18.9	.
33	O=C(COc1cccnc1[N+](=O)[O-])Nc1cccc(Br)c1	6.9	.	63.5*	22.9	-7.5	76.4

Entries of single compounds from above. Order of values: PglD inh, miR-122 sensor, esBAF inh, Wnt act, Yeast UUG start, MITF TRPM1 HTS
Shown for N/C(=N\OC(=O)c1ccc(Br)cc1)c1ccncc1 = ., -9.3, ?, 11.6, ., 97.9*
Shown for O=C(COC(=O)[C@H](Cc1c[nH]c2ccccc12)NC(=O)c1ccc(Cl)cc1)Nc1ccc2c(c1)OCO2 = 6.0, 1.6, ?, ., -18.4, 10.5
Shown for Cc1ccccc1-c1nnc(SCC#N)o1 = ., 1.4, ., -1.3, ., -6.0
Shown for O=S(=O)(N[C@@H]1CC[C@H](CCn2cc(-c3cccc(F)c3)nn2)O[C@@H]1CO)c1ccc(Cl)cc1 = -0.6, ., 14.9, ., -2.2, .

High-throughput results (PubChem)
